# Source: US8957024B2, “Composition and methods for reducing opioid-induced pruritus” (priority 2011, dated 2015)
# By UniProt entry, the sequences of proteins in these tests, tags left out. Where a name states a change or a piece, a line headed by the entry shows the natural chain unless it says otherwise.
# UniProt P21729: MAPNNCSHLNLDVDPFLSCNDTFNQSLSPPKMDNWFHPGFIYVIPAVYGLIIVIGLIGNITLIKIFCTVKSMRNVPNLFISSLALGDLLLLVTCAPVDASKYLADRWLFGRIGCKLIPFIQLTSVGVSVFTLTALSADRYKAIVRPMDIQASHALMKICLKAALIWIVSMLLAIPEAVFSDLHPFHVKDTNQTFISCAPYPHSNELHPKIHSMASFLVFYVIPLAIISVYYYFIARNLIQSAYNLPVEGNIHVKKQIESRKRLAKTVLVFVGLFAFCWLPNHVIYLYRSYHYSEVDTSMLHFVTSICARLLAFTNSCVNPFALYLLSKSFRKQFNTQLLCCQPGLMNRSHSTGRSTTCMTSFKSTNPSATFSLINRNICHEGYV
# Target: T1, Myc-GRPR (Mus musculus, UniProt P21729)
# T1 construct: expressed in transfected cells
# Experiment: Receptor internalization assay (ELISA, immunofluorescence staining) in HEK 293 cells: GRPR
# Format: cell-based
# Details: HEK 293 cells expressing GRPR alone; agonist 1 μM, 30 min
substance,measurement,value
gastrin-releasing peptide [GRP],agonist-induced GRPR internalization,induced endocytosis of GRPR
